Source: US8969358B2, “Buprenorphine analogs” (dated 2015)

Tests used:
[1] = molecular target: T1, κ opioid receptor (Homo sapiens (Human), UniProt P41145); test: κ-opioid receptor [35S]GTPγS functional assay; conditions: for EC50: read-out: GTPγS κ EC50; for GTPγS κ Emax: relative to the effect elicited by U69,593
[2] = molecular target: μ-opioid receptor (Homo sapiens (Human), UniProt P35372); test: μ-opioid receptor [35S]GTPγS functional assay; conditions: read-out: GTPγS μ EC50; bound given in μM
[3] = molecular target: T1, κ opioid receptor; test: κ-opioid receptor radioligand dose displacement binding assay ([3H]-U69,593); conditions: read-out: Ki κ; binding affinity

| Structure (SMILES) | EC50 [1] [µM] | GTPγS κ Emax [1] [%] | EC50 ([1]; bound given in μM) [µM] | other results |
| --- | --- | --- | --- | --- |
| CO[C@]12CC[C@@]3(C[C@@H]1CNC(=O)[C@@H](N)CO)[C@H]1Cc4ccc(O)c5c4[C@@]3(CCN1CC1CC1)[C@H]2O5 | 0.00608 | 23.50 | – | – |
| CO[C@]12CC[C@@]3(C[C@@H]1CNC(=O)[C@H](CC(N)=O)NC(C)=O)[C@H]1Cc4ccc(O)c5c4[C@@]3(CCN1CC1CC1)[C@H]2O5 | – | – | > 20 | – |
| CO[C@]12CC[C@@]3(C[C@@H]1CNC(=O)[C@@H]1CCCN1C(C)=O)[C@H]1Cc4ccc(O)c5c4[C@@]3(CCN1CC1CC1)[C@H]2O5 | – | – | > 20 | – |
| COC12CC[C@@]3(C[C@@H]1CNC(=O)c1nccnc1C(=O)O)[C@H]1Cc4ccc(O)c5c4[C@@]3(CCN1CC1CC1)[C@H]2O5 | – | – | > 20 | – |
| CO[C@]12CC[C@@]3(C[C@@H]1CNC(=O)CNC(C)=O)[C@H]1Cc4ccc(O)c5c4[C@@]3(CCN1CC1CC1)[C@H]2O5 | – | – | > 20 | – |
| CO[C@]12CC[C@@]3(C[C@@H]1CNC(=O)[C@H](Cc1c[nH]cn1)NC(C)=O)[C@H]1Cc4ccc(O)c5c4[C@@]3(CCN1CC1CC1)[C@H]2O5 | – | – | > 20 | – |
| COc1ccc2c3c1O[C@H]1[C@@]4(OC)CC[C@@]5(C[C@@H]4CNC(=O)[C@H](C)N)[C@@H](C2)N(CC2CC2)CC[C@]315 | 1.61 | 36.67 | – | EC50 [2]: > 20 µM |
| CC[C@H](C)[C@H](N)C(=O)NC[C@H]1C[C@@]23CC[C@]1(OC)[C@@H]1Oc4c(O)ccc5c4[C@@]12CCN(CC1CC1)[C@@H]3C5 | – | – | > 20 | – |
| COC12CC[C@@]3(C[C@@H]1CNC(=O)CCc1nnn[nH]1)[C@H]1Cc4ccc(O)c5c4[C@@]3(CCN1CC1CC1)[C@H]2O5 | 0.0263 | 16.67 | – | – |
| COC12CC[C@@]3(C[C@@H]1CNC(=O)CCC(=O)O)[C@H]1Cc4ccc(O)c5c4[C@@]3(CCN1CC1CC1)[C@H]2O5 | 0.0622 | 22.25 | – | – |
| COC12CC[C@@]3(C[C@@H]1CNC(=O)CCC(N)=O)[C@H]1Cc4ccc(O)c5c4[C@@]3(CCN1CC1CC1)[C@H]2O5 | 0.00919 | 26.33 | – | – |
| CO[C@]12CC[C@@]3(C[C@@H]1CNC(=O)[C@H](Cc1ccc(O)cc1)NC(C)=O)[C@H]1Cc4ccc(O)c5c4[C@@]3(CCN1CC1CC1)[C@H]2O5 | – | – | > 20 | – |
| CO[C@]12CC[C@@]3(C[C@@H]1CNC(=O)[C@H](CC(C)C)NC(C)=O)[C@H]1Cc4ccc(O)c5c4[C@@]3(CCN1CC1CC1)[C@H]2O5 | – | – | > 20 | – |
| CO[C@]12CC[C@@]3(C[C@@H]1CNC(=O)[C@H](C)N)[C@H]1Cc4ccc(O)c5c4[C@@]3(CCN1CC1CC1)[C@H]2O5 | 0.00421 | 29.33 | – | – |
| COC12CC[C@@]3(C[C@@H]1CNC(=O)CCCCC(=O)O)[C@H]1Cc4ccc(O)c5c4[C@@]3(CCN1CC1CC1)[C@H]2O5 | 0.0576 | 21.00 | – | – |
| CO[C@]12CC[C@@]3(C[C@@H]1CNC(=O)[C@@H](N)CC(N)=O)[C@H]1Cc4ccc(O)c5c4[C@@]3(CCN1CC1CC1)[C@H]2O5 | 0.00561 | 16.00 | – | – |
| COC12CC[C@@]3(C[C@@H]1CNC(=O)c1nccnc1C(N)=O)[C@H]1Cc4ccc(O)c5c4[C@@]3(CCN1CC1CC1)[C@H]2O5 | – | – | > 20 | – |
| CO[C@]12CC[C@@]3(C[C@@H]1CNC(=O)[C@@H](N)CC(C)C)[C@H]1Cc4ccc(O)c5c4[C@@]3(CCN1CC1CC1)[C@H]2O5 | 0.0107 | 27.00 | – | – |
| CC[C@H](C)[C@H](NC(C)=O)C(=O)NC[C@H]1C[C@@]23CC[C@]1(OC)[C@@H]1Oc4c(O)ccc5c4[C@@]12CCN(CC1CC1)[C@@H]3C5 | – | – | > 20 | – |
| CO[C@]12CC[C@@]3(C[C@@H]1CNC(=O)[C@H](CC(=O)O)NC(C)=O)[C@H]1Cc4ccc(O)c5c4[C@@]3(CCN1CC1CC1)[C@H]2O5 | 0.058 | 14.33 | – | – |
| CO[C@]12CC[C@@]3(C[C@@H]1CNC(=O)[C@H](C)NC(C)=O)[C@H]1Cc4ccc(O)c5c4[C@@]3(CCN1CC1CC1)[C@H]2O5 | 0.00623 | 25.67 | – | – |
| CO[C@]12CC[C@@]3(C[C@@H]1CNC(=O)[C@@H]1CCCN1)[C@H]1Cc4ccc(O)c5c4[C@@]3(CCN1CC1CC1)[C@H]2O5 | 0.00268 | – | – | Ki [3]: 0.07 nM |

Like-named read-outs stand apart in the source and are kept apart here.
